Laboratory results: US11578084B2, “Condensed ring compounds having dopamine D3 receptor antagonistic effect” (Shionogi & Co., Ltd., priority 2018, dated 2023)

Protein sequences, listed by entry. Tags and fused reporters are not part of them.
UniProt P14416, whole entry: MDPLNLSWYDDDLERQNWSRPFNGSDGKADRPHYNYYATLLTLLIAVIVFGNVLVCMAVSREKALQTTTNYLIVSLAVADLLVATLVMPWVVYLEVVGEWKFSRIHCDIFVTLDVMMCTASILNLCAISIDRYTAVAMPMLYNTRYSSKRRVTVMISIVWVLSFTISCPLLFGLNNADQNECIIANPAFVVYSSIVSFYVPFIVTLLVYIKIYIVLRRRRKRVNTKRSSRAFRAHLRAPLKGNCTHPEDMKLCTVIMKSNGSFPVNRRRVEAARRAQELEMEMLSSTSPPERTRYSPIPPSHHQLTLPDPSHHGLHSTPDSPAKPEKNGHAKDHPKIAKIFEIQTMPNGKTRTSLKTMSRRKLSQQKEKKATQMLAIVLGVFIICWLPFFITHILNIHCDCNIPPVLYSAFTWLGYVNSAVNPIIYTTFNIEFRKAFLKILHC
UniProt P35462, whole entry: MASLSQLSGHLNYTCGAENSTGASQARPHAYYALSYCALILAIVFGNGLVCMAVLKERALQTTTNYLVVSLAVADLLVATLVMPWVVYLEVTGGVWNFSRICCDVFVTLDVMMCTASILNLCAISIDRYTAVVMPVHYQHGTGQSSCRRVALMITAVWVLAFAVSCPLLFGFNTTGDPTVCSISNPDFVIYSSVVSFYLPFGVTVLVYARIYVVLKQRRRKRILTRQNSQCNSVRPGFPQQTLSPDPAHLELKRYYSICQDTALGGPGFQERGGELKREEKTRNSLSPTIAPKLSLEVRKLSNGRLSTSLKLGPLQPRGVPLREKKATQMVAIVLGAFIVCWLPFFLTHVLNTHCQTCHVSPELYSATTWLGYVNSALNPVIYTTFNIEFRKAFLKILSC

Columns and labels:
[1] = target: human recombinant dopamine D2 receptor (Homo sapiens (Human), UniProt P14416); assay: Test of binding inhibition for dopamine D2 receptor ([3H]-Methylspiperone SPA); settings: read-out: hD2_Ki; [3H]-Methylspiperone 1.2 nM, Jump-In HEK cell membranes
[2] = target: human recombinant dopamine D3 receptor (Homo sapiens (Human), UniProt P35462); assay: Test of binding inhibition for dopamine D3 receptor ([3H]-Methylspiperone SPA); settings: read-out: hD3_Ki; Jump-In HEK cell membranes, 2 nM [3H]-Methylspiperone, 120 min at 25° C.

Cn1cc(CC(=O)N[C@H]2CC[C@](F)(CCN3CCc4ccc(OCC(F)F)nc4CC3)CC2)c(F)n1
Ki [1]: 1.6 µM
Ki [2]: 0.00015 µM
